The values that follow are results of earlier work, collected in article PMC5072831, “Novel Nuclear Factor-KappaB Targeting Peptide Suppresses β-Amyloid Induced Inflammatory and Apoptotic Responses in Neuronal Cells” (PLoS ONE, 2016).

Chains of the proteins cited; added tags and fusions are not shown.
UniProt Q04206, whole entry: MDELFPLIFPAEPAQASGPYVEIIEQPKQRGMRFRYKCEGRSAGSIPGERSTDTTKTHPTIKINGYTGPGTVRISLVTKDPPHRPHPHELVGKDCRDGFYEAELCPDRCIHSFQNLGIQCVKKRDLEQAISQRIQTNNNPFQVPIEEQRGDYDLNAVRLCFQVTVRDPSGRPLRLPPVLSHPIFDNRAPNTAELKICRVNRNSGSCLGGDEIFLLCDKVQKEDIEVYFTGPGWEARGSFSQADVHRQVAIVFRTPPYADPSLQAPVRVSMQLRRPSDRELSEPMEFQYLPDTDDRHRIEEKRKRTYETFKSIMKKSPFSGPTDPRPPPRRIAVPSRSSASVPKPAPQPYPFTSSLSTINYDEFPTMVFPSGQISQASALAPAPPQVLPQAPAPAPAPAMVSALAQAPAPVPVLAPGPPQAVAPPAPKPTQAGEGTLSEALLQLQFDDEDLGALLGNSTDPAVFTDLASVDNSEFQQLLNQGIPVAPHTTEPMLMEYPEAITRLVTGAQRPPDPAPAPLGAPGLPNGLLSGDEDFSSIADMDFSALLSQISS

Broadly, the Kd is a measure of binding affinity in units of concentration.

In this data set the target is T1, r-p65 (Homo sapiens, UniProt Q04206).
T1 construct: purchased Ori-Gene Technologies Inc., Rockville, MD TP320780
As to conditions: previously shown; ref [27]; read-out: strength of interaction with r-p65 (KD); cited from earlier work. As for the experimental part: We used similar method to determine direct binding kinetics of GA hexapeptides with human r-p65. High binding ELISA plates were coated with increasing concentrations of r-GILZ (0.5μM to 20μM) or each GA or control peptide (20μM-640μM) and probed with 80μM r-p65 followed by detection with anti-DDK antibody. Absorbance at 650nm was measured with a mixing time of 30s using BIORAD microplate reader. […] The strength of interact ...

B1: r-GILZ: purified recombinant human GILZ protein with GST tag (Ori-Gene) (protein)
chain: MNTEMYQTPMEVAVYQLHNFSISFFSSLLGGDVVSVKLDNSASGASVVAIDNKIEQAMDLVKNHLMYAVREEVEILKEQIRELVEKNSQLERENTLLKTLASPEQLEKFQSCLSPEEPAPESPQVPEAPGGSAV
modifications: left off: GST, end not stated, state not stated
Turning to B1, the Kd is 591 nM.
